## Measured affinities in a library of Ab-91 heavy chain variants

All variants were tested on one target, the spike HR2 peptide PDVDLGDISGINAS (SARS-CoV-2).

Each scFv is VL, the linker GGGGSGGGGSGGGGS, VH, as in the parent Ab-91, and differs from it in the CDRs of the heavy chain only.
VL: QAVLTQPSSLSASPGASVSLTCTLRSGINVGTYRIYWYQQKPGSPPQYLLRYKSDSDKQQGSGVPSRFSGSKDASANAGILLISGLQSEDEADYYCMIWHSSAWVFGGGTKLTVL
VH: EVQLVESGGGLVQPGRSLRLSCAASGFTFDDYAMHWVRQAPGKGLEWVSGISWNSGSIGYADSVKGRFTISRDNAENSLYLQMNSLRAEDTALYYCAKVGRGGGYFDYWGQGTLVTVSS

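The parent was found by panning a naive human phage display library on the peptide. The library (AAYL51) carries one to three amino acid substitutions per variant, with no insertions or deletions. In AlphaSeq, yeast of one mating type display the scFv and yeast of the other type display the target. Pairs that bind mate more often; barcode pairs of the diploids are counted by sequencing. Scores were corrected for input abundance and mapped to Kd with protein pairs of known affinity run in the same pool. Mating was done three times.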

Positions count from residue 1 of the parent VH; A33S puts S in place of A.
Every variant below is changed at M34 of the VH (sequential numbering).
Kd is apparent (estimated from mating counts) and averaged on the log scale over replicates with a signal. Smaller is tighter.
"nd" means that the variant was in the library but no mating with the target was seen in any replicate; the authors take this as a sign of poor binding, and no number exists.
Nonspecific signal, from three strains lacking the peptide, appeared in 21% of pairings of library AAYL51, centred on 34 µM (5% of these signals below 1.8 µM); values are not corrected for it.
In this assay the parent's reference entry averaged 72 nM; its copy inside this library read 7.5 nM.

Variant A33S/M34F gave 11 nM (3 of 3 replicates).
Variant T28F/M34Q/G50V gave 41 µM (1 of 3 replicates).
Variant M34A/Y60R/A61L gave nd (0 of 3 replicates).
Variant A33S/M34V/S57Y gave nd (0 of 3 replicates).
Variant M34F/S57H/G102R gave 79 nM (2 of 3 replicates).
Variant M34L/S57W/V99L gave nd (0 of 3 replicates).
Variant M34Q/S63F/D107T gave nd (0 of 3 replicates).
Variant D30W/M34C/S52L gave nd (0 of 3 replicates).
Variant Y32K/M34A/I58R gave nd (0 of 3 replicates).
Variant M34R/W53S/S63W gave nd (0 of 3 replicates).
Variant M34Q/Y105D/D107P gave 190 µM (2 of 3 replicates).
Variant M34V/S57R/G103E gave 9.4 µM (1 of 3 replicates).
Variant M34K/R101K gave 99 µM (1 of 3 replicates).
Variant M34D/S55Q/D62A gave nd (0 of 3 replicates).
Variant M34Y/W53Q/S57T gave nd (0 of 3 replicates).
Variant M34G/F106S/Y108G gave nd (0 of 3 replicates).
Variant G26S/M34A/S63R gave nd (0 of 3 replicates).
Variant M34N/Y105S gave 29 µM (2 of 3 replicates).
Variant M34T/S52Q/Y60G gave 8.9 µM (1 of 3 replicates).
Variant G26F/M34H/S57K gave 330 µM (1 of 3 replicates).
Variant Y32E/M34G/D107N gave 360 µM (1 of 3 replicates).
Variant M34T/S63L gave 160 µM (1 of 3 replicates).
Variant M34V/G103V gave 720 µM (2 of 3 replicates).
Variant M34P/S52E/S57G gave 160 µM (3 of 3 replicates).
Variant M34R/I51K gave 62 µM (1 of 3 replicates).
Variant M34G/S57Y gave 190 µM (1 of 3 replicates).
Variant Y32W/M34H/G50Y gave 88 µM (3 of 3 replicates).
Variant M34P/S52F/Y108V gave nd (0 of 3 replicates).
Variant M34V/G100Q/R101D gave 31 µM (1 of 3 replicates).
Variant M34R gave 150 µM (2 of 3 replicates).
Variant M34E/I58N/Y60A gave nd (0 of 3 replicates).
Variant M34H/Y60Q/A61M gave nd (0 of 3 replicates).
Variant M34L/G50M/Y108T gave 750 nM (1 of 3 replicates).
Variant M34S gave 34 µM (1 of 3 replicates).

3 of these entries, quoted again:

The variant G26S/M34A/S63R gave nd (0 of 3 replicates).
The variant M34T/S63L gave 160 µM (1 of 3 replicates).
The variant T28F/M34Q/G50V gave 41 µM (1 of 3 replicates).

Source: Engelhart et al. 2022 (doi:10.1038/s41597-022-01779-4), MIT Lincoln Laboratory and A-Alpha Bio; data file from the FLAb repository.